Experimental data: patent US11099188B2

Tests used:
[1] = system: BaF3 expressing FIG-ROS(S); assay: MTS assay, growth of BaF3 cells expressing FIG-ROS(S); conditions: same concentration of each, 0-1.0 uM, FIG. 21A/21B
[2] = system: BaF3 expressing FIG-ROS(L); assay: MTS assay, growth of BaF3 cells expressing FIG-ROS(L); conditions: same concentration of each, 0-1.0 uM, FIG. 21A/21B

C[C@@H](Oc1cc(-c2cnn(C3CCNCC3)c2)cnc1N)c1c(Cl)ccc(F)c1Cl [crizotinib]
sensitivity of cellular growth, TAE-684 compared with crizotinib [1]: more sensitive to TAE-684 than to crizotinib | sensitivity of cellular growth, TAE-684 compared with crizotinib [2]: more sensitive to TAE-684 than to crizotinib
